# Tested on: human lung cancer cell NCI-H460
# Experiment: Tumor cell viability by MTT assay
# Format: cell-based
# Details: NCI-H460, 96 h, read-out: H460 IC50
# Description: After 24 hours, 100 μL of fresh medium containing different concentrations of test compounds and the corresponding solvent control was added into each well to a final concentration of DMSO less than 0.2%. Six to nine concentration groups were set for each test compound, and three parallel wells were set for each group. The plate was incubated at 5% CO2, 37° C. for 96 hours. 20 μL of freshly prepared PBS solution containing 5 mg/mL MTT was added to each well. The supernatant was discarded after incubation for another 4 hours. 150 μL DMSO was added to each well to dissolve the MTT formazan precipitate. After being mixed by a micro-oscillator, the optical density (OD) was measured at the wavelength of 570 nm, and the tumor cells treated with DMSO were used as a control group.
smiles,measurement,value
"COc1ncc(-c2cc(OC3CCOCC3)c3nc(N)nc(C)c3c2)cc1NS(=O)(=O)c1ccc(F)cc1F [Example 1, N-(5-(2-amino-4-methyl-8-((tetrahydro-2H-pyran-4-yl)oxy)quinazolin-6-yl)-2-methoxypyridin-3-yl)-2,4-difluorobenzenesulfonamide]",IC50,29 nM
